# According to the NIST ThermoML archive (doi:10.1021/je050317k):
# Numbers after ± are expanded uncertainties.
# Details: Liquid
smiles,measurement,setting,value
CCl [chloromethane],vapor or sublimation pressure,273.1 K,260.1 ± 2.4 kPa
same,vapor or sublimation pressure,313.15 K,870.9 ± 5.6 kPa
